Data on one compound can be found in patent publication US20230026808A1, “COMPOUNDS, COMPOSITIONS, AND METHODS FOR TREATING ISCHEMIA-REPERFUSION INJURY AND/OR LUNG INJURY” (YALE UNIVERSITY, priority 2019, published 2023).

Each structure is given as a SMILES string. Where two headings read alike, the source gives them in different places.

For `Cc1ccc(Nc2nccc(N(C)c3ccc4c(C)n(C)nc4c3)n2)cc1S(N)(=O)=O` [pazopanib, 5-((4-((2,3-dimethyl-2H-indazol-6-yl)(methyl)amino)pyrimidin-2-yl)amino)-2-methylbenzenesulfonamide], the margin of safety runs as follows: (2-week monkey study vs 20 mg clinical starting dose) 11.2 fold; (monkey, 14 days, IV 20 minute infusion, clinical dose 20 mg/day or 0.29 mg/kg) 11.2X.
